Values quoted from earlier work in US20080015265A1, “Methods of treating obesity using satiety factors” (priority 2006, published 2008).

Conditions: animals

Substance: calcitonin-gene related peptide (ACDTATCVTHRLAGLLSRSGGVVKNNFVPTNVGSKAF; Calcitonin gene-related peptide 1; UniProt P06881 83-119, looked up)
- food intake: decrease food intake
